Measurements reported in PMC7041276.

Target: histidine-tagged DNMT3A (UniProt Q9Y6K1)

DNMT Magnetic Beads (DMB) assay, acellular: incorporation of radiolabeled methyl groups into synthetic miRNA-181a-5p by DNMT3A with or without AGO4 (300 nM), AdoMet 900 nM: 9 times
Substance: GST-labeled AGO4 (from UniProt Q9HCK5 1-861) (natural protein)
